High-throughput results from PubChem.
This is a sample that favours compounds with a hit; in the whole collection about 16% have one here.
TDP1 inh: blocks human tyrosyl-DNA phosphodiesterase 1; 350,000 compounds, 0.28% hits; recombinant TDP1, AlphaScreen DNA substrate cleavage; Potency, µM (doses to about 130 µM), hits mostly inhibitors; note: nearly all actives have a fitted effect of over 40% in size
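E. coli-derived human Tdp1, 1 nM final. Cpd preinc 15 min RT; substrate 15 nM final, 5 min RT; AS bead mix 10 ug/ml final, 10 min RT. Signal loss = tyrosine-FITC cleavage. No-enzyme wells = max signal.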
TDP1 cell CPT: growth inhibition of DT40 Tdp1-/-;hTDP1 cells with camptothecin (screen for TDP1 inhibitors); chicken DT40 Tdp1-/-;hTDP1 cells + 20 nM CPT, ATP luminescence, 48 h; 420,000 compounds, 12% hits; Potency, µM (doses to about 46.2 µM), most hits filed as inhibitors; note: nearly all actives have a fitted effect of over 55% in size
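Chicken DT40 Tdp1-/- cells complemented with human TDP1, 400 cells/well, exposed to compounds plus 20 nM camptothecin for at least 48 h at 37 C; viability read as ATP content by CellTiter-Glo luminescence.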
uPA generation: inhibitors of cell surface uPA generation; 330,000 compounds, 0.31% hits; Potency, µM (titrated, usually from 38.3 µM), usual class: inhibitors; cell surface uPA generation assay, qHTS; active = well fitted inhibition curve with a large enough effect; inconclusive = small, poorly fitted or top-dose-only effect; inactive = no such curve, though single readings can be large or run the other way; tested in mouse RAW 264.7 cells; note: nearly all actives have a fitted effect of over 55% in size
miR-21 FLuc: raises the signal of a miR-21 reporter | AID 2288 | 340,000 tested, under 10 active | Potency, µM (series often up to 38.3 µM) | HeLa miR-21 FLuc reporter, luciferase, 48 h; active = well fitted rising curve with a large enough effect; inconclusive = small, poorly fitted or top-dose-only effect; inactive = no such curve, though single readings can be large or run the other way;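 further: miR-21 action dims this reporter so a rising signal means less miR-21 action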
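HeLa miR-21-FLuc reporter line, endogenous miR-21; 2000 cells/well in DMEM/10% FBS; compound titration up to ~40uM final, 48 h, 37 degree Celsius; luciferase detection reagent, 15 min lysis, CCD luminescence.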
TDP1 cell noCPT: qHTS for Inhibitors of human tyrosyl-DNA phosphodiesterase 1 (TDP1): qHTS in cells in absence of CPT; Potency, µM (doses to about 46.2 µM), usual class: inhibitors; AID 686978, 2013; DT40 Tdp1-/- hTDP1 cells, no CPT, ATP luminescence, 48 h; 420,000 compounds, 15% hits; note: nearly all actives have a fitted effect of over 55% in size
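Stably hTDP1-transfected Tdp1-null chicken DT40 cells were treated with library compounds minus camptothecin and grown for at least 48 hr at 37 °C, after which cellular ATP was quantified by luminescence.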
Large screens that a line does not name were inactive. Unless noted, calls come from the whole dose curve; as a rule, active = well fitted curve in the direction sought with a large enough effect; inconclusive = small, poorly fitted or top-dose-only effect, or another doubt; inactive = no such curve, though single readings can be large; an effect the other way counts as inactive or inconclusive.

COC(=O)[C@]12CCCCC=C1N(CCc1ccc(OC)c(OC)c1)C(=O)[C@H](CC(=O)NCc1ccccc1)C2	TDP1 cell CPT inconclusive, TDP1 cell noCPT 21µM (no result: TDP1 inh, uPA generation, miR-21 FLuc)
COC(=O)[C@]12CCCCC=C1N(CCc1ccc(OC)c(OC)c1)C(=O)[C@H](CC(=O)N1CCN(C(=O)C3CC3)CC1)C2	none (no result: TDP1 inh, uPA generation, miR-21 FLuc)
COC(=O)[C@]12CCCCC=C1N(CCc1ccc(OC)c(OC)c1)C(=O)[C@H](CC(=O)NCCCCc1ccccc1)C2	TDP1 cell CPT 21µM, TDP1 cell noCPT 16µM (no result: TDP1 inh, uPA generation, miR-21 FLuc)
O=C(CSc1nc2ncccc2[nH]1)Nc1cc(F)ccc1F	TDP1 cell noCPT inconclusive (no result: uPA generation)
CCOc1ccccc1NC(=O)NC1(C(=O)NCC2CCCO2)CCCCC1 (centres undefined)	none
CCOC(=O)C1=C(CCl)NC(=O)NC1c1ccc2c(c1)OCO2 (centres undefined)	TDP1 cell CPT 15µM, TDP1 cell noCPT 2.6µM (no result: TDP1 inh)
CC1=C(C(=O)OCCCBr)C(c2ccc3c(c2)OCO3)NC(=O)N1 (centres undefined)	TDP1 cell CPT 26µM, TDP1 cell noCPT 23µM
CCOC(=O)C(C)OC(=O)C1=C(C)NC(=O)NC1c1ccc2c(c1)OCO2 (centres undefined)	TDP1 cell CPT 3.7µM, TDP1 cell noCPT 4.1µM (no result: TDP1 inh)
CC(=O)c1ccc(NC(=O)C(Cc2ccccc2)NS(=O)(=O)c2ccc3c(c2)CCC(=O)N3)cc1 (centres undefined)	none (no result: uPA generation)
COc1cc(/C=C(/C#N)C(=O)NCCCc2ccccc2)ccc1OCC(=O)O	none (no result: TDP1 inh)
CC(C)c1cc(/C=C(\C#N)C(=O)NCCCc2ccccc2)cc(C(C)C)c1O	TDP1 cell CPT 21µM, TDP1 cell noCPT 21µM (no result: uPA generation, miR-21 FLuc)
Cc1ccc(Cl)cc1-c1cc(C(=O)NCc2ccccc2)[nH]n1	none (no result: TDP1 inh, uPA generation, miR-21 FLuc)
COc1cc(CNC(=O)c2cc(-c3cc(Cl)ccc3C)n[nH]2)cc(OC)c1	TDP1 cell CPT 26µM, TDP1 cell noCPT inconclusive (no result: TDP1 inh, uPA generation, miR-21 FLuc)
COc1ccc(CNC(=O)c2ccccc2C(=O)O)cc1	none
COc1ccc(CNC(=O)c2cc(-c3ccc(Cl)cc3)n[nH]2)cc1	none (no result: uPA generation)
CCOc1ccc(-c2cc(C(=O)NCc3cc(OC)cc(OC)c3)[nH]n2)c(C)c1	TDP1 cell CPT 21µM, TDP1 cell noCPT inconclusive (no result: TDP1 inh, uPA generation, miR-21 FLuc)
COc1ccc(CNC(=O)c2cc(-c3ccc(C)c(C)c3)n[nH]2)cc1	TDP1 cell CPT inconclusive, TDP1 cell noCPT 16µM (no result: uPA generation)
COc1ccc(CNC(=O)c2cccc(-c3ccc(C)c4ccccc34)n2)cc1	TDP1 cell CPT inconclusive, TDP1 cell noCPT 18µM
COc1cc(CNC(=O)c2cc(-c3cc(OC)ccc3Cl)n[nH]2)cc(OC)c1	TDP1 cell CPT inconclusive (no result: TDP1 inh, uPA generation, miR-21 FLuc)
Cc1ccc(S(=O)(=O)N/N=C/c2cccs2)cc1	none
CCOCCCNC(=O)c1ccc(-c2nc(CS(=O)(=O)c3ccccc3)c(C)o2)cc1	TDP1 cell noCPT inconclusive (no result: uPA generation)
CC1(c2cccc(Br)c2)NC(=O)N(CC(=O)N2CCc3ccccc32)C1=O (centres undefined)	TDP1 cell noCPT inconclusive (no result: miR-21 FLuc)
O=C(NCc1cccs1)c1cc(S(=O)(=O)N2CCCCC2)ccc1Cl	TDP1 cell CPT inconclusive
COc1ccc(-c2cc(C(=O)NN)[nH]n2)cc1OC	uPA generation 10µM
COc1ccc(-c2cc(C(=O)O)[nH]n2)cc1OC	none
Cc1ccc(Cl)cc1-c1cc(C(=O)NCc2cccc(Cl)c2)[nH]n1	TDP1 cell CPT 18µM, TDP1 cell noCPT inconclusive (no result: TDP1 inh, uPA generation, miR-21 FLuc)
COc1ccc(-c2cc(C(=O)NCc3cccc(C(F)(F)F)c3)[nH]n2)c(C)c1	TDP1 cell CPT 26µM, TDP1 cell noCPT inconclusive (no result: TDP1 inh, uPA generation, miR-21 FLuc)
Cc1cc(F)ccc1-c1cc(C(=O)NCc2cc(C(F)(F)F)cc(C(F)(F)F)c2)[nH]n1	none (no result: TDP1 inh, uPA generation, miR-21 FLuc)
O=C(NCc1ccc(F)cc1)c1cc(-c2ccc(Cl)cc2)n[nH]1	TDP1 cell CPT 7.3µM, TDP1 cell noCPT 8.2µM (no result: uPA generation)
COc1ccc2oc(=O)cc(CN3CCN(c4ccccc4OC)CC3)c2c1	TDP1 cell CPT inconclusive, TDP1 cell noCPT inconclusive (no result: uPA generation)
CCCOCc1cc(CN2CCN(c3ccccc3OC)CC2)c(O)c2ncccc12	TDP1 cell CPT 4.6µM, miR-21 FLuc inconclusive, TDP1 cell noCPT 2.9µM (no result: uPA generation)
CCOCc1cc(CN2CCN(c3ccccc3OC)CC2)c(O)c2ncccc12	TDP1 cell CPT 5.2µM, TDP1 cell noCPT 5.2µM (no result: uPA generation)
